Consider 19 compounds from patent publication US10183938B2, “Geminal substituted quinuclidine amide compounds as agonists of α-7 nicotonic acetylcholine receptors” (AXOVANT SCIENCES GMBH, priority 2014, dated 2019).

Amino acid sequences for entries named in this document (tags omitted). Residues count along the entry.
UniProt P36544, 23-502 limits assumed: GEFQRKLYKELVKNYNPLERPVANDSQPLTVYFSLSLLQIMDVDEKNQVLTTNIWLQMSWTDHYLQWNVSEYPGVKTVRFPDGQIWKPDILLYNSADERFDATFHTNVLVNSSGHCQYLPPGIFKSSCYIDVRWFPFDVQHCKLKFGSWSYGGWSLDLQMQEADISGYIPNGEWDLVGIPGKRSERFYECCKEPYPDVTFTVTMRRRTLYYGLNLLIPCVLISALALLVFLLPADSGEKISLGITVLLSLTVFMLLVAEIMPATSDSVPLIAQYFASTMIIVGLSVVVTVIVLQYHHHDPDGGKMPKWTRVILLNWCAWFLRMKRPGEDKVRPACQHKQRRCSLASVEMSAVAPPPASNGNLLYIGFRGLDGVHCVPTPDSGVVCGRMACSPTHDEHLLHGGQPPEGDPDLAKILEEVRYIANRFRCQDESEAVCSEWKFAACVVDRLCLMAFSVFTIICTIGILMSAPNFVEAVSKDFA

Counter-ions that a name gives are not always drawn.

This assay addresses human α7 nAChR (Homo sapiens (Human), UniProt P36544). The assay is described as follows: Human α7 nAChR binding assay ([125I]-αBungarotoxin competition binding). The following applies: read-out: h-a7 Ki; SH-SY5Y membranes, 0.05 nM [125I]-αBgt, Cheng Prusoff.
One may read the Ki as the dissociation constant of the complex between target and ligand, obtained from inhibition or displacement. As for `CC1(C)[C@@H](NC(=O)c2cc3cc(Cl)c(Cl)cc3s2)C2CCN1CC2` [(S)-14, (S)-5,6-dichloro-N-(2,2-dimethylquinuclidin-3-yl)benzo[b]thiophene-2-carboxamide hydrochloride], the Ki was > 30 µM.

In the case of `Cc1ccc2sc(C(=O)N[C@H]3C4CCN(CC4)C3(C)C)cc2c1` [(S)-16, (S)—N-(2,2-dimethylquinuclidin-3-yl)-5-methylbenzo[b]thiophene-2-carboxamide hydrochloride], the Ki is > 30 µM. To `CC1(C)[C@@H](NC(=O)c2cc3cc(C(F)(F)F)ccc3s2)C2CCN1CC2` [(S)-17, (S)—N-(2,2-dimethylquinuclidin-3-yl)-5-(trifluoromethyl)benzo[b]thiophene-2-carboxamide hydrochloride] belongs > 30 µM. For `CC1(C)[C@@H](NC(=O)c2cc3ccc(C4CC4)cc3s2)C2CCN1CC2` [(S)-18, (S)-6-cyclopropyl-N-(2,2-dimethylquinuclidin-3-yl)benzo[b]thiophene-2-carboxamide hydrochloride], the Ki came out at 16 µM. As for `CC1(C)[C@@H](NC(=O)c2cc3cc(C4CC4)ccc3s2)C2CCN1CC2` [(S)-19, (S)-5-cyclopropyl-N-(2,2-dimethylquinuclidin-3-yl)benzo[b]thiophene-2-carboxamide hydrochloride], the figure is > 30 µM; as for `COc1ccc2sc(C(=O)N[C@H]3C4CCN(CC4)C3(C)C)cc2c1` [(S)-21, (S)—N-(2,2-dimethylquinuclidin-3-yl)-5-methoxybenzo[b]thiophene-2-carboxamide hydrochloride], > 30 µM.

`CC1(C)[C@@H](NC(=O)c2cc3c(cn2)OCCO3)C2CCN1CC2` [(S)-23, (S)—N-(2,2-dimethylquinuclidin-3-yl)-2,3-dihydro-[1,4]dioxino[2,3-c]pyridine-7-carboxamide hydrochloride]: the Ki is > 30 µM. To `CC1(C)[C@@H](NC(=O)c2cnn3ncccc23)C2CCN1CC2` [(S)-27, (S)—N-(2,2-dimethylquinuclidin-3-yl)pyrazolo[1,5-b]pyridazine-3-carboxamide hydrochloride] belongs > 30 µM. To `CC1(C)[C@@H](NC(=O)c2cc3cccnc3s2)C2CCN1CC2` [(S)-28, (S)—N-(2,2-dimethylquinuclidin-3-yl)thieno[2,3-b]pyridine-2-carboxamide hydrochloride] belongs > 30 µM; to `CC1(C)[C@@H](NC(=O)c2nc3ccccc3s2)C2CCN1CC2` [(S)-29, (S)—N-(2,2-dimethylquinuclidin-3-yl)benzo[d]thiazole-2-carboxamide hydrochloride], > 30 µM.

Consider `O=C(N[C@H]1C2CCN(CC2)C12CC2)c1cc2c(cn1)OCCO2` [(S)-76, (S)—N-(1′-azaspiro[cyclopropane-1,2′-bicyclo[2.2.2]octan]-3′-yl)-2,3-dihydro-[1,4]dioxino[2,3-c]pyridine-7-carboxamide hydrochloride], for which the Ki is > 30 µM. As to `O=C(N[C@H]1C2CCN(CC2)C12CC2)c1cnn2ncccc12` [(S)-80, (S)—N-(1′-azaspiro[cyclopropane-1,2′-bicyclo[2.2.2]octan]-3′-yl)pyrazolo[1,5-b]pyridazine-3-carboxamide hydrochloride], the Ki was > 30 µM. As for `O=C(N[C@H]1C2CCN(CC2)C12CC2)c1cc2cccnc2s1` [(S)-81, (S)—N-(1′-azaspiro[cyclopropane-1,2′-bicyclo[2.2.2]octan]-3′-yl)thieno[2,3-b]pyridine-2-carboxamide hydrochloride], the figure is > 30 µM. For the compound `O=C(N[C@H]1C2CCN(CC2)C12CC2)c1nc2ccccc2s1` [(S)-82, (S)—N-(1′-azaspiro[cyclopropane-1,2′-bicyclo[2.2.2]octan]-3′-yl)benzo[d]thiazole-2-carboxamide hydrochloride], the Ki is > 30 µM. To “(R)-N-(1′-azaspiro[cyclopropane-1,2′-bicyclo[2.2.2]octan]-3′-yl)benzo[d]isoxazole-5-carboxamide hydrochloride” belongs 19 µM; to “(R)-N-(2,2-dimethylquinuclidin-3-yl)-6-(oxetan-3-yl)benzo[b]thiophene-2-carboxamide”, > 30 µM; to “(R)-N-(2,2-dimethylquinuclidin-3-yl)-6-(trifluoromethoxy)benzo[b]thiophene-2-carboxamide hydrochloride”, 9.8 µM. Turning to “(R)-N-(2,2-dimethylquinuclidin-3-yl)benzo[d]isoxazole-5-carboxamide hydrochloride”, the Ki is > 30 µM. “(R)-N-(2,2-dimethylquinuclidin-3-yl)benzo[d]isoxazole-6-carboxamide hydrochloride”: the Ki is > 30 µM.
